We go through 16 molecules from EP4847511A1, “COMPOUND WITH TRICYCLIC STRUCTURE, PHARMACEUTICAL COMPOSITION THEREOF AND USE THEREOF” (dated 2026).

Sequences of proteins named here, by UniProt entry; tags and fusion partners are left off. A change or cut given only in a name is not applied to a line headed by its entry.
UniProt P42336, whole entry: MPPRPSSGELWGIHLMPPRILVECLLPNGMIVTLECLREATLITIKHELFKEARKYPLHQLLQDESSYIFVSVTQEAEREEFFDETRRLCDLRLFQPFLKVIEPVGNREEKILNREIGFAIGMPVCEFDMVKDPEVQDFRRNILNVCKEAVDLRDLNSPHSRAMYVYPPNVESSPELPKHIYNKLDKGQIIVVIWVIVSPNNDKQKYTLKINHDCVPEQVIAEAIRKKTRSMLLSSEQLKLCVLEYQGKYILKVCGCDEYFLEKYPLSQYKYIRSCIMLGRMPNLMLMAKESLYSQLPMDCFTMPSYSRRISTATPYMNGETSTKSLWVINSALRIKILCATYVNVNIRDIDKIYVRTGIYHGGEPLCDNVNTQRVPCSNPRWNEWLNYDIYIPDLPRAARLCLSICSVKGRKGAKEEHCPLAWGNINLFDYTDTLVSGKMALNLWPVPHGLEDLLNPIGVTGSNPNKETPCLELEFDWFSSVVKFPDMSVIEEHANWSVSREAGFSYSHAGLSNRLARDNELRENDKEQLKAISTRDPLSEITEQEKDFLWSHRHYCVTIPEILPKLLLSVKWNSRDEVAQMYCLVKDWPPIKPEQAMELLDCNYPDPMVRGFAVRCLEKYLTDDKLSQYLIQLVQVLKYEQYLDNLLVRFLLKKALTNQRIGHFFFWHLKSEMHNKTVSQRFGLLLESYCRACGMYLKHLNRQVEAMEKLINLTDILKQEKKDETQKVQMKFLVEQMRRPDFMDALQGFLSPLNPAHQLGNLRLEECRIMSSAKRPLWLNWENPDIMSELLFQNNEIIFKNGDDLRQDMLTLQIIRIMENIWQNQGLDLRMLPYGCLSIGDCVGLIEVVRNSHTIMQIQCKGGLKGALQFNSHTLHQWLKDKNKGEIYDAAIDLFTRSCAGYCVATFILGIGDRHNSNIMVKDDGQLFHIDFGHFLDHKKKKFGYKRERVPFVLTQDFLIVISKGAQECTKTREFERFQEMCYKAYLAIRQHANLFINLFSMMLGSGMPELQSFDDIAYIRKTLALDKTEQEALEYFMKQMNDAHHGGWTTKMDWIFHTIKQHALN
UniProt P42336, whole entry H1047R: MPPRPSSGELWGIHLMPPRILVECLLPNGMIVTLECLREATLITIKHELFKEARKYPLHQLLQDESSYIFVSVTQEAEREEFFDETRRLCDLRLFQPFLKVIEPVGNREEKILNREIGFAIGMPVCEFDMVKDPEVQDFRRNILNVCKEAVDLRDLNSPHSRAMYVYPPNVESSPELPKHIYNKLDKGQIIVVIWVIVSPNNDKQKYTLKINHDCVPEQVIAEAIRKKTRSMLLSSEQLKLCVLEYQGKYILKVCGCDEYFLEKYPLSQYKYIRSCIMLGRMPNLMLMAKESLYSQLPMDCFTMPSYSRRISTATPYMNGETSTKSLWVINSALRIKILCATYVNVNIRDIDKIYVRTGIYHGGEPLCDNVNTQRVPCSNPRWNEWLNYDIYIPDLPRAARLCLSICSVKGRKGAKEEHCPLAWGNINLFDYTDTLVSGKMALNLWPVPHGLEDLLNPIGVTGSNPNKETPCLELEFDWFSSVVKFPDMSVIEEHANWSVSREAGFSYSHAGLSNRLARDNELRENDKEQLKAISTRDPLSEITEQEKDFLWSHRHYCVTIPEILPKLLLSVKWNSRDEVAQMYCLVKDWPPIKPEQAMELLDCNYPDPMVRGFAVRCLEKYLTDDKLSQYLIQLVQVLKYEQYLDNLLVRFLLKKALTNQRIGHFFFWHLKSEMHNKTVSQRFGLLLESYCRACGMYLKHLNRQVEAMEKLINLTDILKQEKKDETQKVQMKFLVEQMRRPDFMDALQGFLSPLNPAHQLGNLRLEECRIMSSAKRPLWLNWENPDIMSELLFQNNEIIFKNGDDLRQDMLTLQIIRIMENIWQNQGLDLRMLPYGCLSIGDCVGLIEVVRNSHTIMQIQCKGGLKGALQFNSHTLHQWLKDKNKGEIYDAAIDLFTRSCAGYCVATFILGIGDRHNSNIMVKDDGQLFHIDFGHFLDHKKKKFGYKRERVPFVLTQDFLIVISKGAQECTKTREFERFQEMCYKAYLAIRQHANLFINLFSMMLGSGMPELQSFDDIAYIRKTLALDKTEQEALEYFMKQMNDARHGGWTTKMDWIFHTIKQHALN
UniProt P27986, whole entry partner: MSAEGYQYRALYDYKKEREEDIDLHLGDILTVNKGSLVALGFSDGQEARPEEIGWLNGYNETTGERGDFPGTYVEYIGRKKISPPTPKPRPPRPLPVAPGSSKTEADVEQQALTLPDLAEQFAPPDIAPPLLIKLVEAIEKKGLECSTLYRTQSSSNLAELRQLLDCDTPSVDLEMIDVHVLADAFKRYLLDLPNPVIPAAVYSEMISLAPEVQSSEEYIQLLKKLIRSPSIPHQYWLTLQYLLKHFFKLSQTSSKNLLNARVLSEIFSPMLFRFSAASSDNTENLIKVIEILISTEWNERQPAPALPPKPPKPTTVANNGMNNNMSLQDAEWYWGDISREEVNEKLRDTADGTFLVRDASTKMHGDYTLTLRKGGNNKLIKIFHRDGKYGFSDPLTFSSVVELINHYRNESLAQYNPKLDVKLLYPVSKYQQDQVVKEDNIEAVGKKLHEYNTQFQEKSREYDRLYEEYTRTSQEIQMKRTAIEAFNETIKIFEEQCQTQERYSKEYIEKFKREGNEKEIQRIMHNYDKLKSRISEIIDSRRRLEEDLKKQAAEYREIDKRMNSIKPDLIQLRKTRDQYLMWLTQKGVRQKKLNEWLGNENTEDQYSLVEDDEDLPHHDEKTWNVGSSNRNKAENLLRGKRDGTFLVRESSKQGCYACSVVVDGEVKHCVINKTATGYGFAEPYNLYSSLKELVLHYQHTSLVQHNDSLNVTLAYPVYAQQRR

Structures are written as SMILES.

One assay concerns the target PI3Kα (Homo sapiens, UniProt P42336). Kind of assay: ADP-Glo Kinase Assay, enzyme activity inhibition of PI3Kα. As to conditions: read-out: PI3Kα IC50, ATP 25µM, PIP2 50µg/mL, kinase PI3Kα 0.15µg/mL, room temperature 1 hour. How it is done: (§1) Effect Example IC50 of PI3Kα and PI3KαH1047R enzyme activity inhibition evaluation assay
(§2) The ADP-Glo Kinase Assay Kit was used for the experiments. The following buffer solutions were prepared: 50 mM HEPES, pH 7.5, 3 mM MgCl2, 1 mM EGTA, 100 mM NaCl, 0.03% CHAPS, 2 mM DTT. The tested compound samples were dissolved in DMSO and added to the screening system at a certain starting concentration of, for example, 10 µM, diluted 3-fold, while setting a DMSO control and an unkinase control. The optimal concentrations of PI3Kα, PI3Kα H1047R, substrate (PIP2) and ATP were prepared with buffers. The enzyme reaction system included: buffer, ATP 25µM, kinase substrate (PIP2, 50µg/mL), kinase PI3Kα (0.15µg/mL), PI3Kδ H1047R (0.05µg/mL), etc. The reaction system was reacted at room temperature for 1 hour, then terminated by adding a terminal reagent (ADP-Glo reagent, 5µL), and the ADP content in the system was detected using a detection reagent (Kinase Detection Reagent, 10µL). Signal data was collected using the Envision instrument. Calculated the % inhibition according to the following formula: % inhibition = (DMSO control signal value - sample signal value)/ (DMSO control signal value - unkinase control signal value). Inhibition curves were plotted using the formula Y=Bottom + (Top-Bottom)/(1+(IC50/X)^HillSlope) to obtain IC50 values and the results are as shown in Table 1.
(§3) Result + represents IC50 <= 250nM ++ represents 250 nM < IC50 < = 10µM +++ represents IC50 > 10 µM Table 1

The target in the next assay is PI3Kα H1047R (Homo sapiens, UniProt P42336, H1047R). Kind of assay: ADP-Glo Kinase Assay, enzyme activity inhibition of PI3Kα H1047R. The note with it: read-out: PI3KαH1047R IC50, ATP 25µM, PIP2 50µg/mL, kinase 0.05µg/mL, room temperature 1 hour. As for the experimental part:
as §1, §2, §3
A general note: ADP-Glo turns the ADP formed in a reaction into a luminescent signal.

Regarding `N#Cc1c(-c2cc(NC(=O)c3cc(F)cc(C(F)(F)F)c3)c3c4c2CCN4C(=O)NC3c2cc(F)ccc2Cl)ccc2[nH]nc(F)c12` (single isomer, unassigned) [Compound 29-p1], the IC50 at PI3Kα was more than 10 µM; on PI3Kα H1047R it was 250 to 10000 nM.
`N#Cc1c(-c2cc(NC(=O)c3cc(F)cc(C(F)(F)F)c3)c3c4c2CCN4C(=O)NC3c2cc(F)ccc2Cl)ccc2[nH]nc(F)c12` (single isomer, unassigned) [Compound 29-p2]: the IC50 at PI3Kα was 0.25 to 10 µM; at PI3Kα H1047R it was less than 250 nM.
On to `N#Cc1c(-c2cc(NC(=O)c3cc(F)cc(C(F)(F)F)c3)c3c4c2CCN4C(=O)NC3c2cc(F)c(F)cc2Cl)ccc2ncnn12` (single isomer, unassigned) [Compound 36-p1], for which the results for the IC50 at PI3Kα and at PI3Kα H1047R were more than 10 µM and 250 to 10000 nM, respectively.
On the same counts, the results for `N#Cc1c(-c2cc(NC(=O)c3cc(F)cc(C(F)(F)F)c3)c3c4c2CCN4C(=O)NC3c2cc(F)c(F)cc2Cl)ccc2ncnn12` (single isomer, unassigned) [Compound 36-p2] are 0.25 to 10 µM and less than 250 nM.
On the same counts, the results for `Nc1nc2ccc(-c3cc(NC(=O)c4cc(F)cc(C(F)(F)F)c4)c4c5c3CCN5C(=O)NC4c3cc(F)ccc3Cl)c(F)n2n1` (single isomer, unassigned) [Compound 45-p1] are 0.25 to 10 µM and less than 250 nM.
The matching figures for `Nc1nc2ccc(-c3cc(NC(=O)c4cc(F)cc(C(F)(F)F)c4)c4c5c3CCN5C(=O)NC4c3cc(F)ccc3Cl)c(F)n2n1` (single isomer, unassigned) [Compound 45-p2]: 0.25 to 10 µM and 250 to 10000 nM.
For the molecule `O=C(Nc1cc(F)c2c3c1C(c1cc(Cl)ccc1Cl)NC(=O)N3CC2)c1cc(F)cc(C(F)(F)F)c1` (single isomer, unassigned) [Compound 48-p1], the IC50 on PI3Kα is more than 10 µM; on PI3Kα H1047R, 250 to 10000 nM.
On the same counts, the results for `O=C(Nc1cc(F)c2c3c1C(c1cc(Cl)ccc1Cl)NC(=O)N3CC2)c1cc(F)cc(C(F)(F)F)c1` (single isomer, unassigned) [Compound 48-p2] are 0.25 to 10 µM and 250 to 10000 nM.
For the molecule `COc1cc(-c2cc(NC(=O)c3cc(F)cc(C(F)(F)F)c3)c3c4c2CCN4C(=O)NC3c2cc(Cl)ccc2Cl)c(C#N)n2ncnc12` (single isomer, unassigned) [Compound 49-p1], the IC50 at PI3Kα was 0.25 to 10 µM; at PI3Kα H1047R, 250 to 10000 nM.
The matching figures for `COc1cc(-c2cc(NC(=O)c3cc(F)cc(C(F)(F)F)c3)c3c4c2CCN4C(=O)NC3c2cc(Cl)ccc2Cl)c(C#N)n2ncnc12` (single isomer, unassigned) [Compound 49-p2]: 0.25 to 10 µM and less than 250 nM.
On the same counts, the results for `Cn1nc2c(-c3ccccc3F)cc(NC(=O)c3cc(F)cc(C(F)(F)F)c3)c3c2c1C(=O)NC3c1cc(F)ccc1Cl` (single isomer, unassigned) [Compound 50-p1] are 0.25 to 10 µM and 250 to 10000 nM.
The matching figures for `Cn1nc2c(-c3ccccc3F)cc(NC(=O)c3cc(F)cc(C(F)(F)F)c3)c3c2c1C(=O)NC3c1cc(F)ccc1Cl` (single isomer, unassigned) [Compound 50-p2]: 0.25 to 10 µM and less than 250 nM.
Consider `N#Cc1ncccc1-c1cc(NC(=O)c2cc(F)cc(C(F)(F)F)c2)c2c3c1CCN3C(=O)NC2c1cc(Cl)ccc1Cl` (single isomer, unassigned) [Compound 51-p1], for which the figures for the IC50 on PI3Kα and at PI3Kα H1047R were more than 10 µM and 250 to 10000 nM, respectively.
On the same counts, the results for `N#Cc1ncccc1-c1cc(NC(=O)c2cc(F)cc(C(F)(F)F)c2)c2c3c1CCN3C(=O)NC2c1cc(Cl)ccc1Cl` (single isomer, unassigned) [Compound 51-p2] are 0.25 to 10 µM and less than 250 nM.
On the same counts, the results for `Cn1nc2c(-c3ccccc3C#N)cc(NC(=O)c3cc(F)cc(C(F)(F)F)c3)c3c2c1C(=O)NC3c1cc(Cl)c(F)cc1Cl` (single isomer, unassigned) [Compound 52-p1] are more than 10 µM and 250 to 10000 nM.
The matching figures for `Cn1nc2c(-c3ccccc3C#N)cc(NC(=O)c3cc(F)cc(C(F)(F)F)c3)c3c2c1C(=O)NC3c1cc(Cl)c(F)cc1Cl` (single isomer, unassigned) [Compound 52-p2]: 0.25 to 10 µM and less than 250 nM.
